Measured values published in paper PMC3397408, “Natural and synthetic cathelicidin peptides with anti-microbial and anti-biofilm activity against Staphylococcus aureus” (BMC Microbiology, 2011).

Columns and labels:
S. aureus (ATCC 25923) = test system: S. aureus (ATCC 25923)
Experimental: S. aureus (ATCC 25923, American Type Culture Collection, Manassas, VA) was grown in Nutrient Broth (Difco Laboratories, Detroit, Mich.) at pH 7, 37°C, 24 h with shaking at 200 rpm. The overnight culture was frozen with 20% glycerol and stored at -80°C. The frozen stock was enumerated (CFU/ml) by dilution plating and growth on Nutrient Agar plates.
For anti-microbial assays, frozen enumerated aliquots were thawed and gently mixed immediately before use. In a 96-well plate (BD Falcon 353072), 1 × 10^5 CFU per well bacteria were incubated with different peptide concentrations (in serial dilutions of 1:10 across the plate) in a solution of buffer containing sterile 10 mM sodium phosphate (pH 7.4) and incubated (3 h, 37°C). Negative control wells contained bacteria with no peptide. Serial dilutions were then carried out in sterile 1x PBS (Fisher Scientific) (pH 7) and plated in triplicate on Nutrient Agar plates, incubated (37°C, 24 h) and counted. […] The EC50 was calculated as previously described.
Each experiment was repeated at least twice, and a representative experiment is shown, for clarity. Errors were reported based on the standard deviation from the mean of the log10 EC50 values. 95% confidence intervals were used to determine whether points were statistically different at p = 0.05.

2% horse erythrocytes = conditions: peptide up to 100 μg/ml in 10 mM sodium phosphate, 1 h, 37°C, n = 12, compared to PBS
Experimental: The hemolytic activity of each of the peptides was determined using 2% horse erythrocytes as previously described.
Hemolytic activities of the peptides were determined using equine erythrocytes (Hema Resource Inc., Eugene, OR, USA) in an assay adapted to a microtiter plate format. Briefly, erythrocytes were prepared by centrifuging 1 ml fresh defibrinated blood (1620 × g, 10 min), re-suspending the pelletted cells in 1 ml sterile PBS (Fisher Scientific) (pH 7). The cells were washed with PBS three times; in the final wash the cells were re-suspended in 0.75 ml PBS. From this, a 2% erythrocyte suspension was prepared for the assay. Aliquots of sterile water (positive control), peptide, and PBS (negative control) were used in a microtiter plate. Various peptide concentrations in sterile 10 mM sodium phosphate (0.1, 1, 10, 100 μg/ml) were tested in n = 12. The assay was then incubated (1 h, 37°C). After centrifugation (1000 × g, 10 min), aliquots of supernatant were carefully transferred to a new microtiter plate and the absorbance was obtained for each well. Percent hemolysis was calculated as previously described.

S. aureus = assay: Bacterial growth / MIC in TSB; format: cell-based, Staphylococcus aureus; conditions: TSB (relatively high salt), peptide concentrations up to the EC50 found in 10 mM sodium phosphate
Experimental: (§1) C. […] Growth (absorbance at 600 nm) is indicated by gray bars with "0 peptide" control set to 100%. Biofilm detection on a polystyrene 96-well plate at 37°C after 24 h of growth in TSB was detected as the absorbance of crystal violet stain (570 nm). Percent biofilm production is indicated by black bars (n = 6), relative to "0 peptide" control. Each experiment is a representative of at least two independent trials. Error bars indicate the standard deviation from the mean. The asterisk (*) indicates statistically different than the positive control (p < 0.01).
(§2) Biofilm production was measured as previously described with the following modifications. […] The positive control is S. aureus in TSB with no peptide. Six wells were used for each peptide concentration (n = 6). After 24 h, the optical densities (OD) of the wells were taken at 600nm to quantify […]. The biofilm production was measured using the crystal violet stain technique.

[1] = test system: S. aureus attachment to 96-well plate; assay: Biofilm attachment assay; format: cell-based, Staphylococcus aureus; conditions: peptide 1 μg/ml, 1 h, 37°C, TSB culture OD600 ~1.0, n = 16, Student's t test
Experimental: The attachment of Staphylococcus spp. to solid surfaces is largely seen as an essential step in the formation of biofilm. Since most of the peptides tested in our biofilm assays were capable of inhibiting biofilm formation (except for scrambled LL-37), we investigated a possible mechanism for this action. We incubated scrambled LL-37 (negative control), LL-37, D-LL-37, NA-CATH, and NA-CATH:ATRA1-ATRA1 peptides with S. aureus in a 1 hr attachment assay at peptide concentrations of 1 ug/ml, examining for the initial adherence to the wells of the 96 well tissue-culture treated plate.
Figure 3 Attachment assay of S. aureus in the presence of peptide. We tested scrambled LL-37 (negative control), LL-37, D-LL-37, NA-CATH, and NA-CATH:ATRA1-ATRA1 against S. aureus (1 h, 37°C) at 1 μg/ml, only allowing for the initial adherence to the wells.
Biofilm attachment assays were performed in a 96-well microtiter plate (BD Falcon 353072), as previously described. Overnight cultures of S. aureus were grown in TSB to an optical density (600nm) of ~1.0. 200 μl culture was added to the wells, followed by no peptide, scrambled LL-37 , LL-37, D-LL-37, NA-CATH, or NA-CATH:ATRA1-ATRA1 at 1 μg/ml. […] The wells were washed and OD600 measurements were taken, as in the biofilm production experiments, and the average absorbance for each treatment was determined (n = 16).

[2] = test system: S. aureus biofilm formation; conditions: peptide 10 μg/ml, TSB, 24 h, 37°C, polystyrene 96-well plate, crystal violet 570 nm, n = 6, relative to 0 peptide control
Experimental: as §1, §2
All experiments were repeated at least twice, with a representative experiment shown.

[3] = EC50 in μg/ml converted with the molecular weight of the TFA salt of the peptide
[4] = S. aureus ATCC 25923, 1 × 10^5 CFU per well, 3 h, 37°C, 10 mM sodium phosphate (pH 7.4), % survival by CFU counts, plated in triplicate, representative experiment

Structure (SMILES)	EC50 (S. aureus (ATCC 25923); [3])	EC50 (S. aureus (ATCC 25923); [4])	hemolysis (2% horse erythrocytes)	bacterial growth (OD600 at 24 hours) (S. aureus)	attachment of S. aureus to the wells [1]	inhibition of biofilm formation [2]
CC(C)C[C@H](NC(=O)[C@H](CCCCN)NC(=O)[C@H](CCCCN)NC(=O)[C@H](Cc1ccccc1)NC(=O)[C@H](Cc1ccccc1)NC(=O)[C@H](CCCCN)NC(=O)[C@H](CCCCN)NC(=O)[C@H](Cc1ccccc1)NC(=O)[C@H](CCCNC(=N)N)NC(=O)[C@@H](N)CCCCN)C(=O)N[C@@H](CCCCN)C(N)=O [ATRA-1]	220 nM	0.52 µg/mL				
C[C@H](NC(=O)[C@H](CCCNC(=N)N)NC(=O)[C@@H](N)CCCCN)C(=O)N[C@@H](CCCCN)C(=O)N[C@@H](CCCCN)C(=O)N[C@@H](Cc1ccccc1)C(=O)N[C@@H](Cc1ccccc1)C(=O)N[C@@H](CCCCN)C(=O)N[C@@H](CCCCN)C(=O)N1CCC[C@H]1C(=O)N[C@@H](CCCCN)C(N)=O [ATRA-2]	7770 nM	18.0 µg/mL				
CC[C@H](C)[C@H](NC(=O)[C@@H](NC(=O)[C@H](CCCCN)NC(=O)[C@H](CC(C)C)NC(=O)[C@H](CCCCN)NC(=O)[C@H](CCCCN)NC(=O)[C@H](Cc1ccccc1)NC(=O)[C@H](Cc1ccccc1)NC(=O)[C@H](CCCCN)NC(=O)[C@H](CCCCN)NC(=O)[C@H](Cc1ccccc1)NC(=O)[C@H](CCCNC(=N)N)NC(=O)[C@H](CCCCN)NC(=O)[C@H](CCCCN)NC(=O)[C@@H](NC(=O)[C@H](CO)NC(=O)[C@H](CC(N)=O)NC(=O)[C@H](CCCCN)NC(=O)[C@H](CC(C)C)NC(=O)[C@H](CCCCN)NC(=O)[C@H](CCCCN)NC(=O)[C@H](Cc1ccccc1)NC(=O)[C@H](Cc1ccccc1)NC(=O)[C@H](CCCCN)NC(=O)[C@H](CCCCN)NC(=O)[C@H](Cc1ccccc1)NC(=O)[C@H](CCCNC(=N)N)NC(=O)[C@@H](N)CCCCN)C(C)C)C(C)C)C(=O)NCC(=O)N[C@H](C(=O)N[C@H](C(=O)N[C@@H](Cc1ccccc1)C(=O)N1CCC[C@H]1C(=O)N[C@@H](Cc1ccccc1)C(=O)O)[C@@H](C)O)C(C)C [NA-CATH:ATRA1-ATRA1]			did not elicit statistically significant hemolysis	not decreased	did not decrease	
CC[C@H](C)[C@H](NC(=O)[C@@H](NC(=O)[C@H](CCCCN)NC(=O)[C@@H]1CCCN1C(=O)[C@H](CCCCN)NC(=O)[C@H](CCCCN)NC(=O)[C@H](Cc1ccccc1)NC(=O)[C@H](Cc1ccccc1)NC(=O)[C@H](CCCCN)NC(=O)[C@H](CCCCN)NC(=O)[C@H](C)NC(=O)[C@H](CCCNC(=N)N)NC(=O)[C@H](CCCCN)NC(=O)[C@H](CCCCN)NC(=O)[C@@H](NC(=O)[C@H](CO)NC(=O)[C@H](CC(N)=O)NC(=O)[C@H](CCCCN)NC(=O)[C@H](CC(C)C)NC(=O)[C@H](CCCCN)NC(=O)[C@H](CCCCN)NC(=O)[C@H](Cc1ccccc1)NC(=O)[C@H](Cc1ccccc1)NC(=O)[C@H](CCCCN)NC(=O)[C@H](CCCCN)NC(=O)[C@H](Cc1ccccc1)NC(=O)[C@H](CCCNC(=N)N)NC(=O)[C@@H](N)CCCCN)C(C)C)C(C)C)C(=O)NCC(=O)N[C@H](C(=O)N[C@H](C(=O)N[C@@H](Cc1ccccc1)C(=O)N1CCC[C@H]1C(=O)N[C@@H](Cc1ccccc1)C(=O)O)[C@@H](C)O)C(C)C [NA-CATH]	480 nM	2.85 µg/mL		not decreased	did not decrease	~ 50%

Like-named read-outs stand apart in the source and are kept apart here.
